Test results taken from patent US12202827B2, “Aldosterone synthase inhibitor” (DAMIAN PHARMA AG, priority 2016, dated 2025).

Settings: 40° C./75% RH; 6 months

N#Cc1ccc([C@H]2CCCc3cncn32)cc1.O=P(O)(O)O
Assay by HPLC, anhydrous, solvent free: 99.2
